Screens deposited in PubChem by National Center for Advancing Translational Sciences (NCATS).
Shown are actives, neighbours in structure and some others; about 2.2% of the full set was active somewhere.
Nrf2 inh: Nrf2 pathway inhibition | A549 ARE-Fluc reporter, luciferase luminescence, 18-24 h | Potency, µM (top dose mostly 46 µM), for the others: at the highest dose activity change, negative = inhibition, hits mostly inhibitors | hit rate 2.1% among 360,000; note: potency is the fitted concentration of half-maximal effect; % is set by controls: 0 for no effect and ±100 for the full control effect; nearly all actives have a fitted effect of over 60% in size
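A549 ARE_Fluc cells, 5000/well, 5% FBS OPTI-MEM; compounds in dose-response, 18-24 h at 37 °C/5% CO2; CellTiter-Fluor viability read (Ex 405/Em 525), then BugLite luciferase luminescence = Nrf2 activity.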
B2AR arrestin: beta2AR (human) beta-arrestin recruitment activity; P07550; beta-arrestin recruitment to beta2AR, cell-based reporter; Potency, µM (doses to about 46.1 µM), without a hit: top-dose activation, hits mostly activators; hit rate 0.02% among 330,000; AID 492947;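 note: potency is the fitted concentration of half-maximal effect; 0% = DMSO controls and full agonism = EC100 isoproterenol or metaproterenol; nearly all actives have a fitted effect of over 65% in size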
Nrf2 ARE act: Nrf2 pathway activation. AREc32 ARE-luciferase reporter (MCF7-derived line), luminescence, 24 h. Potency, µM (top dose mostly 46.1 µM), inactives show top-dose activation, hits mostly activators. hit rate 0.31% among 410,000. AID 624171; note: potency is the fitted concentration of half-maximal effect; % of control where 0% means no effect; nearly all actives have a fitted effect of over 65% in size
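Each well held 1000 AREc32 cells, which were incubated with compound for 24 hr at 37 deg C after overnight attachment, and ARE reporter activity was quantified by firefly luciferase luminescence.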
A549 viability: kills or reduces viability of A549 cells in Nrf2 counter-screen. A549 ARE-Fluc cells, CellTiter-Fluor viability, 18-24 h. Potency, µM (highest dose often 46 µM), without a hit: top-dose activity change, negative = cytotoxicity, most hits filed as inhibitors. hit rate 0.16% among 390,000; note: potency is the fitted concentration of half-maximal effect; % is set by controls: 0 for no effect and ±100 for the full control effect
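A549 ARE_Fluc cells in 5% FBS OPTI-MEM were exposed to compounds in concentration-response for 18-24 h at 37 deg C. Viability was read by CellTiter-Fluor fluorescence (Ex 405/Em 525) after 30 min, before the luciferase read.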
miR-21 reporter: raises the signal of a miR-21 reporter | HeLa miR-21 FLuc reporter, luciferase, 48 h | Potency, µM (doses to about 38.3 µM), for the others: at the highest dose reporter change, positive = more light | 340,000 tested, under 10 active | AID 2288; active = well fitted rising curve with a large enough effect; inconclusive = small, poorly fitted or top-dose-only effect; inactive = no such curve, though single readings can be large or run the other way;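 also: % of control where 0% means no effect; miR-21 action dims this reporter so a rising signal means less miR-21 action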
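HeLa cells stably expressing CMV-driven firefly luciferase with a downstream miR-21 binding sequence, endogenously expressing miR-21, were treated with titrations (up to about 40uM final) for 48 hours at 37 degree Celsius. Luciferase luminescence was read after lysis.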
* = called active by the depositor; ? = inconclusive; . = not tested or not shown. Unless noted, calls come from the whole dose curve; as a rule, active = well fitted curve in the direction sought with a large enough effect; inconclusive = small, poorly fitted or top-dose-only effect, or another doubt; inactive = no such curve, though single readings can be large; an effect the other way counts as inactive or inconclusive.

SMILES | Nrf2 inh | B2AR arrestin | Nrf2 ARE act | A549 viability | miR-21 reporter
CCC1CN2CCc3cc(OC)c(OC)cc3C2CC1CC1NCCc2c1[nH]c1ccc(O)cc21 (centres undefined) | 0.52µM* | . | -2% | 1.2µM* | .
COC(=O)c1ccc(CSc2nc3c(cnn3-c3ccc(C)cc3)c(=O)[nH]2)o1 | 23µM* | 3% | 0% | -1% | -13%
COC(=O)c1ccc(COc2cc(C)cc3oc(=O)c4c(c23)CCCC4)o1 | ? | 0% | 0% | 7% | 4%
Cc1ccc(Cl)cc1N1CCN(c2ncnc3c2nc2n3CCCC2)CC1 | ? | . | -1% | -6% | 1%
COc1ccc(N2CCN(c3ncnc4c3nc3n4CCCCC3)CC2)cc1 | 16µM* | . | 2% | -22% | 3%
c1ccc(N2CCN(c3ncnc4c3nc3n4CCCC3)CC2)cc1 | 23µM* | . | 0% | -13% | ?
COc1ccc(NC(=O)CCOc2cc(C)ccc2C)cc1S(=O)(=O)N1CCCCC1 | ? | 0% | 2% | -28% | .
Cc1ccc(C(=O)Nc2c(C(=O)Nc3ccc(C)c(C)c3)sc3nc(C)cc(C)c23)cc1 | ? | . | 8% | -12% | -53%
CCn1cc2nc(SCc3cccc(C(F)(F)F)c3)n(Cc3ccc(OC)cc3)c(=O)c2n1 | 23µM* | . | 4% | -20% | 12%
COc1ccc(CCNC(=O)N2c3ccccc3Sc3ccccc32)cc1 | 16µM* | . | 0% | ? | .
O=c1[nH]c(O)c(N=Nc2cc([N+](=O)[O-])ccc2O)c(=O)[nH]1 | -1% | -1% | 0% | 23µM* | -2%
NC(=O)c1ccc(N=Nc2c(O)[nH]c(=O)[nH]c2=O)cc1 | . | 0% | . | . | -2%
COC[C@H]1OC(=O)c2coc3c2[C@@]1(C)C1=C(C3=O)[C@@H]2CCC(=O)[C@@]2(C)C[C@H]1OC(C)=O | 3.7µM* | . | ? | 16µM* | .
CC(N)C(=O)NC1C2C(=C(O)CC(O)C2O)C(=O)OC1(C)C(Cl)Cl (centres undefined) | 1.6µM* | . | -2% | 2.1µM* | .
Cc1sc2ncnc(N3CCN(S(=O)(=O)c4ccc(Br)cc4)CC3)c2c1C | 12µM* | . | 0% | -7% | .
COc1ccc(OCC(=O)N2CCN(Cc3nc4cc([N+](=O)[O-])ccc4n3C)CC2)cc1 | 23µM* | -1% | 6% | -20% | 0%
CCOC(=O)c1c(C)[nH]c(C)c1S(=O)(=O)NCC(=O)N1CCN(c2cc(Cl)ccc2C)CC1 | ? | . | 0% | 1% | 14%
O=C1C(=O)c2ccccc2-c2ccccc21 | 18µM* | 0% | -3% | ? | ?
O=C1C(=O)c2cccc3cccc1c23 | 11% | -1% | 0% | 1% | 1%
Cc1cc(N2CCCCC2)nc2ccc(NC(=O)/C=C/c3ccc(OC(C)C)cc3)cc12 | ? | . | 0% | -9% | 18%
COC1/C=C/C=C(\C)Cc2cc(O)c(Cl)c(c2)N(C)C(=O)CC(OC(=O)C(C)C)C2(C)OC2C(C)C2CC1(O)NC(=O)O2 (centres undefined) | 8.2µM* | . | -1% | ? | .
C[C@]12CC[C@H](O)CC1=CCC1C2CC[C@@]2(C)C1C[C@@H]1CC(=O)O[C@@H]12 (some centres undefined) | 18µM* | 0% | 0% | 3% | .
O=C(O)CSCC(=O)N(Cc1ccccc1)c1nc(-c2ccccc2)c(-c2ccccc2)s1 | ? | 0% | 0% | 0% | -3%
Cc1ccc(NC(=O)Nc2ccc3nc(N4CCN(C)CC4)cc(C)c3c2)cc1F | 14% | . | 6% | -26% | ?

The closing four compounds of the part above open the next one.
SMILES | Nrf2 inh | B2AR arrestin | Nrf2 ARE act | A549 viability | miR-21 reporter
COC1/C=C/C=C(\C)Cc2cc(O)c(Cl)c(c2)N(C)C(=O)CC(OC(=O)C(C)C)C2(C)OC2C(C)C2CC1(O)NC(=O)O2 (centres undefined) | 8.2µM* | . | -1% | ? | .
C[C@]12CC[C@H](O)CC1=CCC1C2CC[C@@]2(C)C1C[C@@H]1CC(=O)O[C@@H]12 (some centres undefined) | 18µM* | 0% | 0% | 3% | .
O=C(O)CSCC(=O)N(Cc1ccccc1)c1nc(-c2ccccc2)c(-c2ccccc2)s1 | ? | 0% | 0% | 0% | -3%
Cc1ccc(NC(=O)Nc2ccc3nc(N4CCN(C)CC4)cc(C)c3c2)cc1F | 14% | . | 6% | -26% | ?
CCOc1cc2c(cc1OCC)-n1cccc1C(c1ccc(C(C)C)cc1)NC2 (centres undefined) | 23µM* | -1% | 9% | ? | 30%
Cc1ccc(CNc2cc(C)nc3nc(-c4ccc(C)cc4)nn23)cc1 | . | . | 0% | 10% | -39%
Cc1cccc(CN2CCc3nc(N4CCN(c5ccccn5)CC4)ncc3C2)c1 | . | . | 3% | -15% | ?
CCc1nn2c(=O)c(C)c(N3CCNCC3)nc2s1 | -3% | . | . | -11% | .
CCOC(=O)C(O)(c1ccc(N(C)C(=O)COc2ccccc2)cc1)C(F)(F)F (centres undefined) | -8% | . | 0% | -1% | .
CN(C)C(=O)O/N=C(\N)COc1ccc(C(C)(C)C)cc1 | ? | 0% | -4% | 21µM* | ?
